Experimental findings from patent US9657003B2, “Androgen receptor modulating compounds” (ORION CORPORATION, priority 2009, dated 2017) are described below.

The target of the test is rat androgen receptor (Rattus norvegicus (Rat), UniProt P15207). As to the kind of experiment: Androgen receptor binding assay (competition binding with [3H]mibolerone). To be noted: cytosolic lysates from ventral prostates of castrated rats; 1 nM [3H]mibolerone; Cheng and Prusoff; read-out: AR binding affinity Ki.

Turning to `Cc1cc(-c2ccn(CCNC(=O)c3cc(-c4cccnc4)n[nH]3)n2)ccc1C#N` [Example 53, N-(2-(3-(4-cyano-3-methylphenyl)-1H-pyrazol-1-yl)ethyl)-3-(pyridin-3-yl)-1H-pyrazole-5-carboxamide], the Ki was determined as 0.018 µM.

One may read the Ki as a dissociation constant, usually derived from enzyme kinetics or from competition with a known ligand.
